Results on 87 compounds are retold here after PubChem BioAssay AID2098 (Broad Institute, 2009).

This is a selection; strong and weak results do not stand in their true shares. Some structures show a salt or complex split into parts, the way the source records it. Activity calls are given as the source filed them.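 Rule for the calls: active = more than half of replicate wells show activity change below -50%, luminescence cut by over half; inconclusive = some wells, but at most half, below -50%; inactive = no replicate well below -50%.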

The test can be described thus: blocking HSF1-driven luciferase expression – cell-based, NIH3T3, luminescence, primary screen (AID 2098).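 Note: luciferase reports HSF-1 transcriptional activity via heat shock element; 0% = median of DMSO wells and -100% = zero luminescence signal.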 As to conditions: NIH3T3-HGL HSE-luciferase, MG132-induced, luminescence 8 h; stronger effect = lower value; screened at 7.5 µM (by protocol).
As for `COc1ccc(OP(C)(=O)Nc2ccc(Br)cc2)cc1` (configuration not stated), the activity change, negative = inhibition was inactive: 2.06%.

`CCN(CC)CC(O)COC(=O)C(O)(c1ccccc1)C1CCCCC1` (configuration not stated): the activity change, negative = inhibition was inactive: -0.202%.

As to `CCc1ccc(OP(C)(=O)Nc2cccnc2)cc1` (configuration not stated), the activity change, negative = inhibition was inactive: -1.49%.

As to `CP(=O)(Oc1ccccc1)N1CCOC1=O` (configuration not stated), the activity change, negative = inhibition was inactive: -2.27%.

Regarding `O=C(OCCCN1CCCC1)C(O)(c1ccccc1)C1CCCCC1` (configuration not stated), the activity change, negative = inhibition is inactive: -3.13%.

Regarding `COc1ccccc1OP(C)(=O)Nc1c(C)n(C)n(-c2ccccc2)c1=O` (configuration not stated), the activity change, negative = inhibition is inactive: -1.07%.

As for `CP(=O)(Nc1ccc(Cl)cc1)Oc1ccc(F)cc1` (configuration not stated), the activity change, negative = inhibition is inactive: 2.29%.

For `COc1ccccc1OP(C)(=O)Nc1ccccc1Br` (configuration not stated), the activity change, negative = inhibition was inactive: -1.62%.

Consider `CC(C)(C)c1ccc(OP(C)(=O)O)cc1`, for which the activity change, negative = inhibition is inactive: -2.08%.

Regarding `CN(C)C(=O)c1c([N+](=O)[O-])cc([N+](=O)[O-])cc1[N+](=O)[O-]`, the activity change, negative = inhibition was inactive: 15.5%.

For `Nc1ccc2c(ccc3cccnc32)n1.O=[N+]([O-])c1cc([N+](=O)[O-])c(O)c([N+](=O)[O-])c1`, the activity change, negative = inhibition was inactive: -20.1%.

In the case of `CP(=O)(OC12CC3CC(CC(C3)C1)C2)OC12CC3CC(CC(C3)C1)C2`, the activity change, negative = inhibition was inactive: 4.03%.

Turning to `CCOC(=O)c1ccc(NP(C)(=O)Oc2ccc(Cl)cc2)cc1` (configuration not stated), the activity change, negative = inhibition was inactive: 0.503%.

`COc1ccc(OP(C)(=O)Nc2ccccc2Br)cc1` (configuration not stated): the activity change, negative = inhibition was inactive: 10.9%.

Consider `COc1ccccc1OP(C)(=O)Nc1ccc(C)c(C)c1` (configuration not stated), for which the activity change, negative = inhibition was inactive: 3.59%.

On to `Cc1nc2ccc3ccccc3c2o1.O=[N+]([O-])c1cc([N+](=O)[O-])c(O)c([N+](=O)[O-])c1`, for which the activity change, negative = inhibition was inactive: 37.8%.

Turning to `CCCCCCCCCCCCCCCC1C[N+](C)(C)CCOP(C)(=O)O1` (configuration not stated), the activity change, negative = inhibition is inactive: -3.56%.

Consider `CP(=O)(Nc1ccc(Cl)cc1Cl)Oc1ccccc1` (configuration not stated), for which the activity change, negative = inhibition was inactive: 2.91%.

As to `CP(=O)(OCCOc1ccccc1)OCCOc1ccccc1`, the activity change, negative = inhibition was inactive: 19%.

As to `COc1ccccc1OP(C)(=O)Nc1ccc(Br)cc1` (configuration not stated), the activity change, negative = inhibition is inactive: 9.22%.

With `CN(C)CCOC(=O)C(O)(c1ccccc1)C1CCCC1` (configuration not stated), the activity change, negative = inhibition was inactive: -4.61%.

`COc1ccc(OP(C)(=O)Nc2ccccn2)cc1` (configuration not stated): the activity change, negative = inhibition was inactive: -5.35%.

Take `Cc1c(NP(C)(=O)Oc2ccc(C(C)C)cc2)c(=O)n(-c2ccccc2)n1C` (configuration not stated): the activity change, negative = inhibition is inactive: 3.81%.

`CCc1ccc(OP(C)(=O)O)cc1`: the activity change, negative = inhibition is inactive: -11.6%.

As to `COc1ccccc1OP(C)(=O)Nc1ccc(C)cc1C` (configuration not stated), the activity change, negative = inhibition was inactive: -5.58%.

On to `CP(=O)(Nc1ccccn1)Oc1ccccc1` (configuration not stated), for which the activity change, negative = inhibition is inactive: -1.92%.

Take `CC(C)c1ccc(OP(C)(=O)Nc2ccc(SC(F)(F)F)cc2)cc1` (configuration not stated): the activity change, negative = inhibition is inactive: 13.5%.

For `CP(=O)(Nc1ccccc1F)Oc1ccccc1` (configuration not stated), the activity change, negative = inhibition is active: -82.6%.

For `O=C(OCCN1CCN(CCOCc2ccccc2)CC1)C(O)(c1ccccc1)c1ccccc1`, the activity change, negative = inhibition is inactive: -7.79%.

Turning to `O=C(OC1CN2CCC1CC2)c1ccc([N+](=O)[O-])cc1` (configuration not stated), the activity change, negative = inhibition is inactive: -3.38%.

Take `COc1ccc2c(c1O)-c1c(O)c(OC)cc3c1[C@H](C2)[N+](C)(C)CC3.O=[N+]([O-])c1cc([N+](=O)[O-])c([O-])c([N+](=O)[O-])c1[O-]`: the activity change, negative = inhibition is inactive: -1.53%.

On to `COc1ccc(OP(C)(=O)Nc2ccc(SC(F)(F)F)cc2)cc1` (configuration not stated), for which the activity change, negative = inhibition was inactive: 25.7%.

Consider `CCOC(=O)c1ccc(NP(C)(=O)Oc2ccc(F)cc2)cc1` (configuration not stated), for which the activity change, negative = inhibition was inactive: -0.00234%.

Consider `CCN(CC)CCCOC(=O)C(O)(c1ccccc1)C1CCCCC1` (configuration not stated), for which the activity change, negative = inhibition was inactive: -8%.

With `CCCCCOc1ccc(NP(C)(=O)Oc2ccc(Cl)cc2Cl)cc1` (configuration not stated), the activity change, negative = inhibition was inactive: -3.2%.

On to `O=[N+]([O-])c1cc([N+](=O)[O-])c(OC2CCCCC2O)c([N+](=O)[O-])c1` (configuration not stated), for which the activity change, negative = inhibition was inactive: -14.9%.

In the case of `CP(=O)(Nc1ccccc1)Oc1ccc(F)cc1` (configuration not stated), the activity change, negative = inhibition was inactive: -3.63%.

Turning to `COc1ccc(OP(C)(=O)Nc2cccc(Br)c2)cc1` (configuration not stated), the activity change, negative = inhibition was inactive: 24.9%.

Consider `COc1ccc(NP(C)(=O)Oc2ccccc2OC)cc1` (configuration not stated), for which the activity change, negative = inhibition is inactive: -2.93%.

On to `CN(C)CCOC(=O)C(O)(c1ccccc1)C1CCCCC1` (configuration not stated), for which the activity change, negative = inhibition is inactive: -7.73%.

`Cc1cc(-c2cccc3ccccc23)c(C)cn1.O=[N+]([O-])c1cc([N+](=O)[O-])c(O)c([N+](=O)[O-])c1`: the activity change, negative = inhibition was inactive: -2.18%.

`O=[N+]([O-])c1cc([N+](=O)[O-])c(NCC2CCS(=O)(=O)C2)c([N+](=O)[O-])c1` (configuration not stated): the activity change, negative = inhibition is inactive: -5.59%.

Turning to `O=[N+]([O-])c1ccc(OP2(=O)COCCO2)cc1` (configuration not stated), the activity change, negative = inhibition was inactive: 3.44%.

On to `CP(=O)(Nc1ccc(SC(F)(F)F)cc1)Oc1ccc(F)cc1` (configuration not stated), for which the activity change, negative = inhibition is inactive: -6.93%.

Turning to `CCOP(C)(=S)SCC(=O)NC(C)(CC)C(=O)O` (configuration not stated), the activity change, negative = inhibition was inactive: -6.66%.

As for `CP(=O)(Nc1ccc2c(c1)OCCO2)Oc1ccccc1` (configuration not stated), the activity change, negative = inhibition was inactive: -16%.

`Cc1ccccc1NP(C)(=O)Nc1ccccc1C`: the activity change, negative = inhibition was inactive: 3.38%.

`O=[N+]([O-])c1cc([N+](=O)[O-])c(-n2nnc3ccccc32)c([N+](=O)[O-])c1`: the activity change, negative = inhibition is inactive: -2.55%.

`O=[N+]([O-])c1cc([N+](=O)[O-])c(-c2cnn(-c3ccccc3)c2)c([N+](=O)[O-])c1`: the activity change, negative = inhibition was inactive: 0.081%.

For the compound `CCOC(=O)C(CC)C1=NC(C)(C)Cc2ccccc21.O=[N+]([O-])c1cc([N+](=O)[O-])c(O)c([N+](=O)[O-])c1` (configuration not stated), the activity change, negative = inhibition was inactive: -2.78%.

On to `O=[N+]([O-])c1cc([N+](=O)[O-])c(Nc2nnnn2CCO)c([N+](=O)[O-])c1`, for which the activity change, negative = inhibition was inactive: -3.65%.

Regarding `COc1ccccc1OP(C)(=O)Nc1c(C)cccc1C` (configuration not stated), the activity change, negative = inhibition is inactive: -0.66%.

For `CN1CCCCC1COC(=O)C1(O)c2ccccc2CCc2ccccc21` (configuration not stated), the activity change, negative = inhibition was inactive: 2.74%.

In the case of `CCCOc1ccc(NP(C)(=O)Oc2ccc(Cl)cc2)cc1` (configuration not stated), the activity change, negative = inhibition is inactive: 3.14%.

As for `CP(=O)(Nc1ccc(SC(F)(F)F)cc1)Oc1ccccc1` (configuration not stated), the activity change, negative = inhibition is inactive: 30.4%.

For the compound `O=C(O)c1cccc(Nc2c([N+](=O)[O-])cc([N+](=O)[O-])cc2[N+](=O)[O-])c1`, the activity change, negative = inhibition is inactive: 1.64%.

Take `CC1=NCCc2c1[nH]c1ccccc21.O=[N+]([O-])c1cc([N+](=O)[O-])c(O)c([N+](=O)[O-])c1`: the activity change, negative = inhibition is inactive: -5.98%.

For the compound `COc1ccccc1OP(C)(=O)Nc1cccc(Br)c1` (configuration not stated), the activity change, negative = inhibition is inactive: -25.7%.

With `Cc1cc(C)cc(OP(C)(=O)Nc2ccc(C)cc2C)c1` (configuration not stated), the activity change, negative = inhibition is inactive: -1.54%.

Take `CCOC(=O)c1ccc(NP(C)(=O)Oc2cc(C)cc(C)c2)cc1` (configuration not stated): the activity change, negative = inhibition was inactive: 1.87%.

On to `Cc1cc(C)cc(OP(C)(=O)Nc2ccccn2)c1` (configuration not stated), for which the activity change, negative = inhibition is inactive: 9.39%.

For the compound `CP(=O)(Nc1cccc(Br)c1)Oc1ccccc1` (configuration not stated), the activity change, negative = inhibition was inactive: 4.75%.

With `Cc1ccc(C)c(NP(C)(=O)Oc2ccccc2)c1` (configuration not stated), the activity change, negative = inhibition was inactive: -3.04%.

For `CCN(CC)CCCOC(=O)C(O)(c1ccccc1)c1ccccc1`, the activity change, negative = inhibition is inactive: 7.64%.

`O=[N+]([O-])c1cc([N+](=O)[O-])c(Nc2cccnc2)c([N+](=O)[O-])c1`: the activity change, negative = inhibition is inactive: 6.44%.

On to `Cc1cccc(C)c1OP(C)(N)=O` (configuration not stated), for which the activity change, negative = inhibition was inactive: -1.82%.

Regarding `CC(C)(C)c1ccc(OP(C)(=O)Nc2ccc(SC(F)(F)F)cc2)cc1` (configuration not stated), the activity change, negative = inhibition is inactive: 11%.

With `O=[N+]([O-])c1ccc2c(c1)C=Nc1ccccc1O2`, the activity change, negative = inhibition is inactive: -7.27%.

Take `CCOC(=O)c1ccc(NP(C)(=O)Oc2ccccc2)cc1` (configuration not stated): the activity change, negative = inhibition was inactive: 6.36%.

Take `Cc1ccc(NP(C)(=O)Oc2ccccc2)c(C)c1` (configuration not stated): the activity change, negative = inhibition was inactive: -2.01%.

As to `COc1ccccc1OP(C)(=O)Nc1ccc(C)cc1` (configuration not stated), the activity change, negative = inhibition was inactive: 0.693%.

Consider `COc1ccc(OP(C)(=O)Nc2cccc(F)c2)cc1` (configuration not stated), for which the activity change, negative = inhibition was inactive: -2.48%.

`COc1ccccc1OP(C)(=O)Nc1cc(Cl)ccc1C` (configuration not stated): the activity change, negative = inhibition was inactive: 1.35%.

`Cc1cc(C)cc(OP(C)(N)=O)c1` (configuration not stated): the activity change, negative = inhibition is inactive: -2.32%.

In the case of `CP(=S)(Nn1cnnc1)Oc1ccccc1` (configuration not stated), the activity change, negative = inhibition is inactive: -6.21%.

As for `COc1ccccc1OP(C)(=O)Nc1ccccc1` (configuration not stated), the activity change, negative = inhibition was inactive: -3.46%.

Turning to `CP(=O)(Nc1ccccc1Br)Oc1ccccc1` (configuration not stated), the activity change, negative = inhibition is inactive: 1.77%.

On to `CP(=O)(Oc1ccccc1)OC(c1ccccc1)C(F)(F)F` (configuration not stated), for which the activity change, negative = inhibition was inactive: -0.163%.

`Cc1cccc(C)c1OP(C)(=O)Nc1ccc(SC(F)(F)F)cc1` (configuration not stated): the activity change, negative = inhibition was inactive: 5.4%.

In the case of `CP(=O)(Nc1ccc(SC(F)(F)F)cc1)Oc1ccc(Cl)cc1` (configuration not stated), the activity change, negative = inhibition was inactive: -0.169%.

`Cc1cc(C)cc(OP(C)(=O)Nc2ccc(SC(F)(F)F)cc2)c1` (configuration not stated): the activity change, negative = inhibition was inactive: 5.7%.

For the compound `CP(=O)(NC(=O)Nc1ccccc1)Oc1ccccc1` (configuration not stated), the activity change, negative = inhibition was inactive: -4.19%.

`CCc1ccc(OP(C)(=O)N2CCN(c3ccc([N+](=O)[O-])cc3)CC2)cc1` (configuration not stated): the activity change, negative = inhibition was inactive: -0.957%.

Consider `CCOP(C)(=S)SCC(=O)NC(C)C(=O)O` (configuration not stated), for which the activity change, negative = inhibition is inactive: -6.26%.

Consider `CCOC(=O)c1ccc(NP(C)(=O)Oc2ccc(OC)cc2)cc1` (configuration not stated), for which the activity change, negative = inhibition was inactive: -18.7%.

For `O=[N+]([O-])c1cc([N+](=O)[O-])c(O)c([N+](=O)[O-])c1.c1ccc(Oc2ccncc2)cc1`, the activity change, negative = inhibition is inactive: -4.49%.

In the case of `CP(=O)(Nc1ccccn1)Oc1ccc(Cl)cc1` (configuration not stated), the activity change, negative = inhibition is inactive: -5.99%.
